Measured values: ChEMBL document CHEMBL5390243, “Catecholamine Derivatives: Natural Occurrence, Structural Diversity, and Biological Activity” (J Nat Prod, 2023)

Molecular target: T1, Peroxisome proliferator-activated receptor alpha (Homo sapiens) (UniProt Q07869)
T1 sequence (whole entry): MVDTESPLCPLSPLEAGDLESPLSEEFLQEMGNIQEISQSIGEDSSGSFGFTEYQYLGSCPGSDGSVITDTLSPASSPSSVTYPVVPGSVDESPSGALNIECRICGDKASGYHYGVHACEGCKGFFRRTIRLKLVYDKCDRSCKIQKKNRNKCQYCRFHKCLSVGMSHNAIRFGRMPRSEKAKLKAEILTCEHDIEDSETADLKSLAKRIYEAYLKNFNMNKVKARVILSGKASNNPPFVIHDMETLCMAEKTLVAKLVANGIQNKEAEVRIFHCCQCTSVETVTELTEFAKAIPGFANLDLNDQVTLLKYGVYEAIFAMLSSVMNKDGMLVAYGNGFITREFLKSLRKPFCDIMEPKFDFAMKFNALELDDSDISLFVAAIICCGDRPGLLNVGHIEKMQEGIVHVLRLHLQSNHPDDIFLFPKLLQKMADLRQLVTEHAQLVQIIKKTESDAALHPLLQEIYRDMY
Test: Activation of PPARalpha (unknown origin) expressed in human HepG2 cells assessed as fold change at 12.5 to 50 ug/ml incubated for 24 hrs by luciferase assay
Format: cell-based
Settings: filed as activator, dose 12.5-50 µg/ml

O=C1c2cc(O)c(O)cc2CCn2cccc21
fold change (FC): 1.06
